Experimental data reported in PubChem BioAssay (NCI).
Some results for these compounds are left out of this collection, so the calls shown say nothing about other tests.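 Step 1: Grow cells in 96-well plates. Step 2: Expose to compound for 48 hours at 5 concentrations. Step 3: Interpolate endpoints linearly; if unreached, use highest concentration. At the TGI there is no net growth.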

Legend:
Test in all cases: NCI-60 cell line screen, 48 h
786-0 renal = system: 786-0 renal
A498 renal = system: A498 renal
A549 NSCLC = system: A549 NSCLC
ACHN renal = system: ACHN renal
BT-549 breast = system: BT-549 breast
CAKI-1 renal = system: CAKI-1 renal
CCRF-CEM leukemia = system: CCRF-CEM leukemia
COLO 205 colon = system: COLO 205 colon
DU-145 prostate = system: DU-145 prostate
EKVX NSCLC = system: EKVX NSCLC
HCT-116 colon = system: HCT-116 colon
HCT-15 colon = system: HCT-15 colon
HL-60(TB) leukemia = system: HL-60(TB) leukemia
HOP-62 NSCLC = system: HOP-62 NSCLC
HOP-92 NSCLC = system: HOP-92 NSCLC
HS 578T breast = system: HS 578T breast
HT29 colon = system: HT29 colon
IGROV1 ovarian = system: IGROV1 ovarian
K-562 leukemia = system: K-562 leukemia
LOX IMVI melanoma = system: LOX IMVI melanoma
M14 melanoma = system: M14 melanoma
MALME-3M melanoma = system: MALME-3M melanoma
MCF7 breast = system: MCF7 breast
MDA-MB-231 breast = system: MDA-MB-231 breast
MDA-MB-435 = system: MDA-MB-435
MDA-N = system: MDA-N
MOLT-4 leukemia = system: MOLT-4 leukemia
NCI-H226 lung = system: NCI-H226 lung
NCI-H23 lung = system: NCI-H23 lung
NCI-H322M lung = system: NCI-H322M lung
NCI-H522 lung = system: NCI-H522 lung
NCI/ADR-RES ovarian = system: NCI/ADR-RES ovarian
OVCAR-3 ovarian = system: OVCAR-3 ovarian
OVCAR-4 ovarian = system: OVCAR-4 ovarian
OVCAR-5 ovarian = system: OVCAR-5 ovarian
OVCAR-8 ovarian = system: OVCAR-8 ovarian
PC-3 prostate = system: PC-3 prostate
RPMI-8226 leukemia = system: RPMI-8226 leukemia
RXF 393 renal = system: RXF 393 renal
SF-268 CNS = system: SF-268 CNS
SF-295 CNS = system: SF-295 CNS
SF-539 CNS = system: SF-539 CNS
SK-MEL-2 melanoma = system: SK-MEL-2 melanoma
SK-MEL-28 melanoma = system: SK-MEL-28 melanoma
SK-MEL-5 melanoma = system: SK-MEL-5 melanoma
SK-OV-3 ovarian = system: SK-OV-3 ovarian
SN12C renal = system: SN12C renal
SNB-19 CNS = system: SNB-19 CNS
SNB-75 CNS = system: SNB-75 CNS
SR leukemia = system: SR leukemia
T-47D breast = system: T-47D breast
TK-10 renal = system: TK-10 renal
U251 CNS = system: U251 CNS
UACC-257 melanoma = system: UACC-257 melanoma
UACC-62 melanoma = system: UACC-62 melanoma
UO-31 renal = system: UO-31 renal

Measured: TGI

O=C(OCCN1C2CCCC1CCC2)C(O)(c1ccccc1)c1ccccc1
> 100 µM: 786-0 renal | A498 renal | A549 NSCLC | ACHN renal | BT-549 breast | CAKI-1 renal | CCRF-CEM leukemia | COLO 205 colon | DU-145 prostate | EKVX NSCLC | HCT-116 colon | HCT-15 colon | HL-60(TB) leukemia | HOP-62 NSCLC | HOP-92 NSCLC | HS 578T breast | HT29 colon | IGROV1 ovarian | K-562 leukemia | LOX IMVI melanoma | M14 melanoma | MALME-3M melanoma | MCF7 breast | MDA-MB-231 breast | MDA-MB-435 | MDA-N | MOLT-4 leukemia | NCI-H226 lung | NCI-H23 lung | NCI-H322M lung | NCI-H522 lung | NCI/ADR-RES ovarian | OVCAR-3 ovarian | OVCAR-4 ovarian | OVCAR-5 ovarian | OVCAR-8 ovarian | PC-3 prostate | RPMI-8226 leukemia | RXF 393 renal | SF-268 CNS | SF-295 CNS | SF-539 CNS | SK-MEL-2 melanoma | SK-MEL-28 melanoma | SK-MEL-5 melanoma | SK-OV-3 ovarian | SN12C renal | SNB-19 CNS | SNB-75 CNS | SR leukemia | T-47D breast | TK-10 renal | U251 CNS | UACC-257 melanoma | UACC-62 melanoma | UO-31 renal
